Binding of CDR-mutated scFvs to a peptide of the spike HR2 region

Antigen: PDVDLGDISGINAS, a 14-residue peptide of the SARS-CoV-2 spike HR2 region.

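This is the validation round: designs drawn from the data on random variants, tested in the same kind of assay. Their group label is 14H_En_Gibbs (En: ensemble of fine-tuned language models; Gibbs: Gibbs sampling). The scFvs were displayed on barcoded MATa yeast, the peptide on MATalpha yeast. Pairs that bind mate more often; barcode pairs of the diploids are counted by sequencing. Scores were corrected for input abundance and mapped to Kd with protein pairs of known affinity run in the same pool. Each pool was mated in six replicate cultures.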

Ab-14 is the parent antibody, in scFv form: VH, then three GGGGS repeats, then VL. The light chain is unchanged in all variants.
VH: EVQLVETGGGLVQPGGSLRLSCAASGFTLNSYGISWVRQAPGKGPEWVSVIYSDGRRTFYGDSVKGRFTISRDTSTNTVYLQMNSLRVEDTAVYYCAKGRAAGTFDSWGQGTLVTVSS
VL: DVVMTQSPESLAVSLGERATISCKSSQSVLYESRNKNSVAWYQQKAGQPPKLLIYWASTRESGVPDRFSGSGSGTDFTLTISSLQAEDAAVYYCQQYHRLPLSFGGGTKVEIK

Variants are written as CDR1, CDR2 and CDR3 of the heavy chain (limits as in the source). Parent: GFTLNSYGIS, VIYSDGRRTFYGDSVK, GRAAGTFDS.
The read-out is the apparent dissociation constant on a log10 scale (nM): the lower, the stronger.
Replicates are averaged; those with no signal do not enter the mean.
A pair that was not seen in that replicate is written "n.d."; this usually means weak binding, but a binder can also be missed.
A sequence measured in both rounds can read differently, since the two assays cover different ranges.
Of ten entries with the parent sequence, four were seen in most replicates (averages 0.34 to 2.37), three in one and three in none, so single entries are noisy.
The authors' rule: three or more of the six replicates give a measured affinity, fewer mean a poor binder.
As a blank, each scFv also met three strains without target: over all heavy chain designs, 1% of these pairings were detected, typically at 2.08 and seldom below 0.84. For each scFv, signals with the empty controls are counted beside the result, with their mean in brackets.

| CDR-H1 | CDR-H2 | CDR-H3 | replicates, log10 nM | mean, log10 nM | control signals |
|---|---|---|---|---|---|
| GFNLNEMGVS | VIYADGKRTVYADSVK | GHFGGVKLN | n.d. / n.d. / n.d. / n.d. / n.d. / n.d. | n.d. | 0 of 18 |
| GFDLDEYGIS | VIYADGVRMAYIDSVK | GNWSGRDMY | n.d. / n.d. / n.d. / n.d. / n.d. / n.d. | n.d. | 0 of 18 |
| GFDLQEYGIS | VIYADGLREAYSDKVK | GQLMGYFSV | n.d. / n.d. / n.d. / n.d. / n.d. / n.d. | n.d. | 0 of 18 |
| GFSLDEYGIS | VIYADGVRQAYQDSVK | GQWHGTMDY | n.d. / n.d. / n.d. / n.d. / n.d. / n.d. | n.d. | 0 of 18 |
| GFGLDDYGIS | VIYADGQRKMYQDNVK | GNVGSLFSV | n.d. / n.d. / n.d. / n.d. / n.d. / n.d. | n.d. | 0 of 18 |
| GKDIESYGVS | VIYADGKRIAYANKFK | GSNAGSFVM | n.d. / n.d. / n.d. / n.d. / n.d. / n.d. | n.d. | 0 of 18 |
| GYDLDDYGIS | VIYADGKRTSYAEDVK | GNIGGSFMN | n.d. / n.d. / n.d. / n.d. / n.d. / n.d. | n.d. | 0 of 18 |
| GYDLNEFGIS | VIYADGSRVAYADDVK | GNIAGHILS | n.d. / n.d. / n.d. / n.d. / n.d. / n.d. | n.d. | 0 of 18 |
| GFDLEEMGIS | VIYADGIRTAVSEDVK | GNVAGTGDF | n.d. / n.d. / n.d. / 1.71 / n.d. / n.d. | 1.71 | 0 of 18 |
| GYDIEDYGIS | VIYADGVRKVYHDSVK | GQLAGFFIT | n.d. / n.d. / n.d. / n.d. / n.d. / n.d. | n.d. | 0 of 18 |
| GQNLDEYGIS | VIYADGMRKWYADDVK | GIMSAGVII | n.d. / n.d. / n.d. / 1.04 / n.d. / n.d. | 1.04 | 0 of 18 |
| GFQLDEYGIS | VIYADGLRTAYKDTVK | GSDTGLFMF | n.d. / n.d. / n.d. / n.d. / n.d. / n.d. | n.d. | 0 of 18 |
| GFEIQEYGIS | VIYADGRRTAYAESVK | GTLGGTFST | -0.01 / 0.79 / -0.03 / 0.65 / -0.40 / -0.46 | 0.09 | 0 of 18 |
| GFDLEEYGIS | VIYADGMRQMYAQNFK | GYNGSDMTV | n.d. / n.d. / n.d. / n.d. / n.d. / n.d. | n.d. | 0 of 18 |
| GDSLDEMGIS | VIYADGQRSYYANSVK | GEHDGLFFQ | n.d. / 2.86 / n.d. / n.d. / n.d. / 2.77 | 2.82 | 0 of 18 |
| GFSLDEYGIS | VIYADGVRQAYQDSVK | GQWHGTFDY | 0.83 / 1.63 / 0.51 / 0.38 / 1.02 / 1.15 | 0.92 | 0 of 18 |
| GNELDEYGIS | VIYADGKRTAYSDDVK | DVGSNTLVD | n.d. / n.d. / n.d. / n.d. / n.d. / n.d. | n.d. | 1 of 18 (1.96) |
| GFPLDEYGIS | VIYADGIRTHYSNSVK | GTIGGTFFQ | 2.71 / 1.82 / n.d. / 1.65 / 1.79 / 2.44 | 2.08 | 1 of 18 (2.59) |
| GFDLDKYGIS | VIYADGSRSVYADDVK | GMLGATFGV | n.d. / n.d. / n.d. / n.d. / n.d. / n.d. | n.d. | 0 of 18 |
| GFKLDEYGIS | VIYADGHRVAYSQKVK | GDNVGNMFE | n.d. / n.d. / n.d. / n.d. / n.d. / n.d. | n.d. | 0 of 18 |
| GDSLNEYGIS | VIYADGVRARYADDVK | GENDGLFDM | n.d. / n.d. / n.d. / n.d. / n.d. / n.d. | n.d. | 0 of 18 |
| EFDLNEYGVS | VIYADGHRSFYADHVK | GQVAGIFFM | n.d. / n.d. / n.d. / n.d. / n.d. / n.d. | n.d. | 0 of 18 |
| GSILDEYGIS | VIYADGVRTAYIEDVK | GQSGVSVVN | n.d. / 2.07 / n.d. / n.d. / n.d. / n.d. | 2.07 | 0 of 18 |
| GQQLDQYGIS | VIYADGVRTSYTNSVK | GVHAGTFMQ | n.d. / n.d. / n.d. / n.d. / n.d. / n.d. | n.d. | 0 of 18 |
| GHDINEYGIS | VIYADGKRSQYAQDVK | GQNVGQGTT | n.d. / n.d. / n.d. / n.d. / n.d. / n.d. | n.d. | 0 of 18 |
| GFDLNEYGIS | VIYADGSRVAYANNVK | GKNNAISSN | n.d. / n.d. / n.d. / n.d. / n.d. / n.d. | n.d. | 1 of 18 (2.33) |
| GFDIEKYGIS | VIYADGQRSAYASSVK | GHEAGNFHV | n.d. / n.d. / n.d. / n.d. / n.d. / n.d. | n.d. | 0 of 18 |
| GFNLSEYGIS | VIYADGNRTYYAPNVK | GQNLDVLNM | n.d. / n.d. / n.d. / n.d. / n.d. / n.d. | n.d. | 1 of 18 (2.35) |
| GFDVLEYGIS | VIYADGRRVAYAKDVK | GMNFDFIVV | n.d. / n.d. / n.d. / n.d. / n.d. / n.d. | n.d. | 0 of 18 |
| GFDINEYGIS | VIYADGRREAYAESVK | GFNQTGWGV | n.d. / n.d. / n.d. / n.d. / n.d. / n.d. | n.d. | 0 of 18 |
| GDSLDEYGIS | VIYADGQRKAYMDKVK | GNGQGTLFD | n.d. / n.d. / n.d. / n.d. / n.d. / n.d. | n.d. | 0 of 18 |
| GFSLDEYGIS | VIYADGVRQFYCDDVK | GGIAGTFNY | n.d. / -1.21 / n.d. / 0.67 / -1.00 / 0.45 | -0.28 | 0 of 18 |
| GQDINEYGIS | VIYADGLRKAYSQQVK | GQNLGDVEV | 2.76 / n.d. / 2.21 / n.d. / n.d. / n.d. | 2.48 | 2 of 18 (2.27) |
| GFKLDEFGIS | VIYADGHRVAVSDKVK | GHNVGAFFV | n.d. / n.d. / n.d. / n.d. / n.d. / n.d. | n.d. | 0 of 18 |
| GEDLDEYGVS | VIYADGRKQSYSNAVK | GAIAGNFDM | n.d. / n.d. / n.d. / n.d. / n.d. / n.d. | n.d. | 0 of 18 |
| GFVLEEYGIS | VIYADGMRTVYAEDFK | GQTGGNFHH | n.d. / n.d. / n.d. / n.d. / n.d. / n.d. | n.d. | 0 of 18 |
| GFDLTEYGIS | VIYADGRRTAYQDAVK | GLNGGMLVV | n.d. / n.d. / n.d. / n.d. / n.d. / n.d. | n.d. | 0 of 18 |
| GFEIQEFGIS | VIYADGIRTNYSQNVK | GTLAGTFTL | n.d. / n.d. / n.d. / n.d. / n.d. / n.d. | n.d. | 0 of 18 |

Reference: Li et al. 2023, doi:10.1038/s41467-023-39022-2. File: FLAb, binding data.